{"source": "patent US8309534B2", "about": "“Compositions comprising a GPR109 ligand for treating disorders of the digestive tract and/or cancer” (Medical College of Georgia Research Institute, Inc., priority 2007, dated 2012)", "tested_on": "KM12L4 cells transfected with GPR109A cDNA", "conditions": "0.5 mM, 24 h"}
{"smiles": "O=C(O)c1cccnc1", "note": "[nicotinate, nicotinic acid]", "values": [{"measurement": "change in expression of genes involved in apoptosis and cell cycle", "value": "causes marked effects on the expression of various genes"}]}
